Experiment: Thermal inactivation after desugaring of egg white
Assay type: physicochemical
Details: 54 and 56° C., 1, 3, 5 and 8 minutes
Method: 100 μL of the desugared egg white was subjected to a heat treatment at a temperature of 54, 56, and 58° C. for 1, 3, 5, and 8 minutes, respectively, and then cooled on ice, and the residual activity of each enzyme was measured.

## Glucose oxidase
  residual enzyme activity in desugared egg white after heat treatment: no substantial reduction in the activity

Reference: US10167453B2, “Saccharide oxidase, and production method for same and use of same” (AMANO ENZYME INC., priority 2012, dated 2019)
